Values quoted from earlier work, collected in patent publication US12404348B2.

Amino acid sequences for entries named in this document (tags omitted).
UniProt O15530, whole entry: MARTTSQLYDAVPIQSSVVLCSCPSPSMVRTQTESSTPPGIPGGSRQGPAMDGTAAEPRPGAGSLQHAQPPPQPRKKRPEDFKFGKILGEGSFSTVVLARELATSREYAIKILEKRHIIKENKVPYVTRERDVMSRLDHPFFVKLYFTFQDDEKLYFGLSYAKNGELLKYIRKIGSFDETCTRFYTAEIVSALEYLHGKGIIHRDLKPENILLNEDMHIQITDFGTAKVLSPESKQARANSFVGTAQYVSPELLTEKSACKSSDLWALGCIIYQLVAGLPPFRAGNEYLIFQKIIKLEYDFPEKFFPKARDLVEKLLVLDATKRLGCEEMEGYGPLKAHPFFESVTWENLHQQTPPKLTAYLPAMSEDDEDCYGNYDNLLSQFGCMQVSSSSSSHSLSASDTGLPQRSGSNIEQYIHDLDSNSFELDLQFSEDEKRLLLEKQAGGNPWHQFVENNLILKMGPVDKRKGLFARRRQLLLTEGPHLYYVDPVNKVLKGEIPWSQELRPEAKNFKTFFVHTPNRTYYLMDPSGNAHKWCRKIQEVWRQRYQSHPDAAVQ

Target: PDK1 (Homo sapiens, UniProt O15530)

O=C(O)/C=C(\CCc1ccc(C(F)(F)F)cc1)c1ccccc1
AC50: 7.1 n.e. | Amax: 4.4 n.e.
